The term Vmax denotes the rate approached at saturating substrate. By Kd is commonly meant the equilibrium constant for the complex coming apart.

Each structure is given as a SMILES string.

In one assay the test system is Wild-type SHP2. In words: Additional DIFMUP kinetics (BioTek protocol), wild-type SHP2. The settings on record: different protocol (1 min read intervals, slope fitting to 3 initial points), BioTek plate reader; n = 3.
As to `Cc1cc(=O)oc2c(F)c(OP(=O)(O)O)c(F)cc12` [DIFMUP], the Vmax turned out to be 285.4 ± 23.1 µM/min.

For another assay, the target named is inactive SHP2 catalytic domain Loopless (R362G+K364S) (Homo sapiens, UniProt Q06124, C459S/K364S/R362G). In words: Fluorescence polarization titrations, SHP2 Loopless. The assay is classed as binding. The settings on record: competitive FP titration vs CF-ppIRS1 100 nM, protein fixed; n = 3 technical replicates.
`CC[C@H](C)[C@H](NC(=O)[C@H](CC(N)=O)NC(=O)[C@@H](NC(=O)[C@H](Cc1ccc(OP(=O)(O)O)cc1)NC(=O)[C@H](CCC(=O)O)NC(=O)CNC(=O)[C@@H]1CCCN1C(=O)[C@H](CO)NC(=O)[C@H](CCCCN)NC(=O)[C@@H]1CCCN1C(=O)[C@@H](N)CCC(=O)O)C(C)C)C(=O)N[C@@H](CCC(=O)O)C(=O)N[C@@H](Cc1ccccc1)C(=O)O` [p0SRev-IRS1] displayed a Kd of 29.8 ± 3.56 µM.

Compound `CSCC[C@H](NC(=O)[C@@H]1CCCN1C(=O)[C@H](CCSC)NC(=O)[C@H](Cc1ccc(OP(=O)(O)O)cc1)NC(=O)[C@H](CC(=O)O)NC(=O)CNC(=O)[C@H](CO)NC(=O)CNC(=O)[C@H](CCCCN)NC(=O)[C@H](CCCNC(=N)N)NC(=O)CN)C(=O)N[C@@H](COP(=O)(O)O)C(=O)N1CCC[C@H]1C(=O)N[C@@H](CCCCN)C(=O)N[C@@H](CO)C(=O)O` [ppIRS1] gave a Kd of 15.8 ± 2.33 µM.

Compound `CC[C@H](C)[C@H](NC(=O)[C@H](CC(N)=O)NC(=O)[C@@H](NC(=O)[C@H](Cc1ccc(OP(=O)(O)O)cc1)NC(=O)[C@H](CCC(=O)O)NC(=O)CNC(=O)[C@@H]1CCCN1C(=O)[C@H](COP(=O)(O)O)NC(=O)[C@H](CCCCN)NC(=O)[C@@H]1CCCN1C(=O)[C@@H](N)CCC(=O)O)C(C)C)C(=O)N[C@@H](CCC(=O)O)C(=O)N[C@@H](Cc1ccccc1)C(=O)O` [ppSRev-IRS1] displayed a dissociation constant Kd of 5.71 ± 0.69 µM.

In the case of `CSCC[C@H](NC(=O)[C@H](Cc1ccc(OP(=O)(O)O)cc1)NC(=O)[C@H](CC(=O)O)NC(=O)[C@H](CO)NC(=O)[C@H](Cc1c[nH]cn1)NC(=O)[C@H](CC(C)C)NC(=O)[C@H](CC(C)C)NC(=O)[C@H](CCCNC(=N)N)NC(=O)[C@H](CO)NC(=O)[C@@H](N)CCCNC(=N)N)C(=O)N[C@@H](CC(N)=O)C(=O)N[C@@H](CCSC)C(=O)N[C@H](C(=O)N1CCC[C@H]1C(=O)N[C@@H](CCCNC(=N)N)C(=O)N[C@@H](CCCNC(=N)N)C(=O)O)[C@@H](C)O` [p0CD28], the affinity, expressed as Kd, was 94.3 ± 4.32 µM.

The compound `CSCC[C@H](NC(=O)[C@H](Cc1ccc(OP(=O)(O)O)cc1)NC(=O)[C@H](CC(=O)O)NC(=O)[C@H](CO)NC(=O)[C@H](Cc1c[nH]cn1)NC(=O)[C@H](CC(C)C)NC(=O)[C@H](CC(C)C)NC(=O)[C@H](CCCNC(=N)N)NC(=O)[C@H](CO)NC(=O)[C@@H](N)CCCNC(=N)N)C(=O)N[C@@H](CC(N)=O)C(=O)N[C@@H](CCSC)C(=O)N[C@H](C(=O)N1CCC[C@H]1C(=O)N[C@@H](CCCNC(=N)N)C(=O)N[C@@H](CCCNC(=N)N)C(=O)O)[C@@H](C)OP(=O)(O)O` [ppCD28] showed a Kd of 25.8 ± 1.94 µM.

The compound `CSCC[C@H](NC(=O)[C@@H]1CCCN1C(=O)[C@H](CCSC)NC(=O)[C@H](Cc1ccc(OP(=O)(O)O)cc1)NC(=O)[C@H](CC(=O)O)NC(=O)CNC(=O)[C@H](CO)NC(=O)CNC(=O)[C@H](CCCCN)NC(=O)[C@H](CCCNC(=N)N)NC(=O)CN)C(=O)N[C@@H](CO)C(=O)N1CCC[C@H]1C(=O)N[C@@H](CCCCN)C(=O)N[C@@H](CO)C(=O)O` [p0IRS1] had a Kd of 195 ± 21 µM.

The values above are taken from article PMC9481563, “Structural insights into the pSer/pThr dependent regulation of the SHP2 tyrosine phosphatase in insulin and CD28 signaling” (Nature Communications, 2022).
